Apparent affinities of Ab-14 variants for a coronavirus HR2 peptide

Target: peptide PDVDLGDISGINAS, taken from heptad repeat 2 (HR2) of SARS-CoV-2 spike.

Parent scFv Ab-14: VH joined to VL by three GGGGS repeats. Changes lie in the light chain CDRs alone.
VH: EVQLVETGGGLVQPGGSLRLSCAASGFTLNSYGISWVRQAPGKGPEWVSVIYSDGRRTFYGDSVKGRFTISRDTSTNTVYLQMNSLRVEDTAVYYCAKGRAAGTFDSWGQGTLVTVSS
VL: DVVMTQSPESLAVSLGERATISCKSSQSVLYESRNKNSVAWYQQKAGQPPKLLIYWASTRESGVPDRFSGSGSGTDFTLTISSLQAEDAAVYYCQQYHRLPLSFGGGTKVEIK

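This is the validation round: designs drawn from the data on random variants, tested in the same kind of assay. Group labels follow the data file (Ctrl: baseline library sampled from a position-specific scoring matrix, with some repeated check sequences; Rand: our label for a block that the file lists under HC and that is probably the random mutants of the ten best first-round binders; GP: Gaussian process model; HC: hill climbing; Gen: genetic algorithm; Gibbs: Gibbs sampling; a sequence that several methods proposed may carry one label only). The scFvs were displayed on barcoded MATa yeast, the peptide on MATalpha yeast. Mating (16 h, 30 °C) was followed by selection of diploids and sequencing of their barcodes. A regression on co-assayed BCL2-family reference pairs converts the normalised counts of each replicate to an apparent Kd. The assay was run in six technical replicates.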

The parent's light chain CDRs are KSSQSVLYESRNKNSVA, WASTRES, QQYHRLPLS; each variant's own CDRs replace them letter for letter. This list holds designs with at most six substitutions. Affinities are written as log10 Kd with Kd in nM; a lower number is a better binder. Averages over replicates are reported, and they cover detected replicates only. "ND" means that the variant was in the library but no mating with the target was seen in that replicate; the authors take this as a sign of poor binding, and no number exists. Three control strains display no target. For all light chain designs, 4% of the pairings with them gave a signal, with a median of 2.64 and one signal in twenty below 1.59, so weak values seen in few replicates may be background. The range of this assay differs from that of the first round, and the authors advise against merging the two. The authors averaged sequences with at least three values out of six and counted those with two or fewer as poor binders.

With KNSLSVLYESRNKNSVA, DASTRES, QQYHRLPLS [Ctrl] the result was 0.28, 0.08, 0.04, 0.29, -0.35, 0.07 (mean 0.07).
With KSSQSVLYESRNKNSVA, WASTLEY, QQYHRLPLS [Ctrl] the result was ND, ND, ND, ND, ND, ND.
With KSSQSVKFESRNKNSVA, DASTREM, QQYHRLPLS [GP_HC] the result was 2.67, 1.04, 1.11, 0.89, 0.54, 2.13 (mean 1.39).
With KSSPSVLYEDRNMNSVA, MASTRES, QDYHRLPLG [Ctrl] the result was ND, ND, ND, ND, ND, ND.
With KDSQSVLYESRNKNSVA, WASTRES, QQYHRLPFS [Ctrl] the result was 1.92, 1.68, 0.90, 1.57, 1.70, 1.61 (mean 1.56).
With KVEQSHLYESRNGNSVA, NASTREH, QQYHRLPLS [GP_Gibbs] the result was 0.83, 0.82, 0.41, 0.64, 0.71, 0.44 (mean 0.64).
With KSSYSGLYESRMKNSVA, EASTRES, QQYHRLPLS [GP_HC] the result was 0.45, -0.06, -0.01, -0.09, -0.19, -0.03 (mean 0.01).
With KSSQSVLYESEDKNSVA, WASTRES, QEYHRLPLS [Ctrl] the result was ND, 2.92, ND, ND, ND, 2.23 (mean 2.58).
With KSSDSDLYEDRNKNQVA, WASTRET, QQYQRLPLS [Ctrl] the result was 1.55, 1.36, 1.47, 1.42, 1.75, 1.30 (mean 1.47).
With KHSQSVLYESRNKNSVA, WASTRES, QQYHRLPLS [Ctrl] the result was ND, ND, ND, 2.06, 2.62, ND (mean 2.34).
With KSSQSVLVESNNKNSVA, WASTRES, QQYHRLPLS [Ctrl] the result was ND, 1.89, 2.78, 1.90, 2.48, 1.68 (mean 2.15).
With KLSQSDLYESRNKNSVA, NASTREH, QQYHRLPLS [GP_Gen] the result was 0.00, -0.16, -0.01, -0.09, -0.05, 0.05 (mean -0.04).
With KFSQSVLYEDRTWNSVA, NASTRES, QQYHRLPLS [GP_HC] the result was 0.09, -0.27, -0.14, -0.26, -0.25, -0.08 (mean -0.15).
With KVSQSHLYESRNKWSVA, NASTRES, QQYHRLPLS [GP_Gen] the result was 0.83, 0.76, 0.51, 0.83, 0.81, 0.96 (mean 0.78).
With HSSPSVEYESRNKNSVA, NASYRES, QQYHRLPLS [GP_HC] the result was 0.45, 0.58, 0.18, 0.48, 0.51, 0.64 (mean 0.48).
With KSSMSVLYESGNKNSVA, HASTRED, QQYHRLPLS [GP_HC] the result was 0.33, 0.33, 0.41, 0.24, 0.16, 0.32 (mean 0.30).
With KVSMSVLYESRNKNSVA, EASTRES, QQYHRLPLS [GP_Gen] the result was 0.29, 0.06, 0.21, -0.09, 0.15, 0.04 (mean 0.11).
With KLSQSVLYEERNKNNVA, EASTRES, QQYHRLPLS [GP_Gen] the result was -0.10, -0.36, -0.28, -0.37, -0.33, -0.19 (mean -0.27).
With KLSQSVVYESRNKNSVA, TASTRED, QQYHMLPLS [Ctrl] the result was 0.73, 0.66, 0.36, 0.74, 1.46, 0.99 (mean 0.82).
With KMSQSVMYEGRNKNSVA, FASTRSS, QQYHRLPLS [Ctrl] the result was 0.73, 0.74, 0.75, 0.69, 0.73, 1.03 (mean 0.78).
With KSSISFLYESMNKNSVA, EASTRES, QQYHRLPLS [GP_HC] the result was 0.78, 1.18, 1.29, 0.67, 0.77, 0.77 (mean 0.91).
With KSSYSVLFESRNKNSVA, NASTRES, QQYHRLPLS [GP_HC] the result was 1.90, 0.56, 1.10, 1.26, 1.55, 1.04 (mean 1.24).
With KSSQSVLGESRNKNSVA, QASTRES, QQYHHVPLS [Ctrl] the result was 1.02, 1.47, 1.10, 0.93, 1.16, 0.96 (mean 1.11).
With TSSPVVLYESRNKNRVA, NASNRES, QQYHRLPLS [Rand] the result was 1.87, 2.46, ND, ND, ND, 2.32 (mean 2.22).
With KSSQSYHWEDRNKNSVA, LASTRES, QQYHRLPLF [Ctrl] the result was ND, 1.05, ND, ND, ND, ND.
With KVQQSNLYESRNKNSVA, EASTRES, QQYHRLPLS [GP_Gen] the result was -0.16, -0.26, -0.44, -0.44, -0.46, 0.37 (mean -0.23).
With KSSISYLRESRNMNSVA, EASTREQ, QQYHRLPLS [GP_HC] the result was 0.48, 0.18, 0.16, -0.10, 0.03, 0.34 (mean 0.18).
With KSSQSVLWEQRNKNSVA, WASTRES, QQYHRLPLS [Ctrl] the result was ND, ND, ND, ND, ND, 2.20.
With KSSQSVLYESRNKNSVA, WASTRES, QQYHRLPLW [Ctrl] the result was 2.84, ND, ND, ND, ND, ND.
With KSSQSWLYESRNTNSVA, NASTRES, QQYHRLILS [Ctrl] the result was ND, ND, ND, ND, ND, ND.
With KSSSSVLYESENKNSVA, WASTRES, QQYHRLPLS [Ctrl] the result was 1.30, 1.60, 1.18, 1.13, 1.11, 2.19 (mean 1.42).
With KSSDSVLYESRNKNSVA, YASTRES, QSYCRLPLS [Ctrl] the result was ND, ND, ND, ND, ND, ND.
With KSSQSVLYESVNKNSVA, WASTREE, YQYHRLPLS [Ctrl] the result was ND, ND, ND, ND, ND, ND.
With KLSNSELYQSRNKNSVA, NASTRYS, QQYHRLPLS [GP_Gibbs] the result was 0.51, 1.75, 1.34, 1.27, 1.13, 0.97 (mean 1.16).
With KSSISYLYESGNKNSVA, NASTRMS, QQYHRLPLS [GP_HC] the result was 0.19, -0.03, -0.11, -0.17, -0.13, 0.06 (mean -0.03).
With KSSQSVTQEDRFKNSVA, WASTRES, QQYHRLPLS [Ctrl] the result was ND, ND, ND, ND, ND, ND.
With KLSSSWLYESRNKNSVA, NASQRES, QQYHRLPLS [GP_Gen] the result was 0.23, 0.15, 0.40, -0.24, 0.18, 0.36 (mean 0.18).
With YFSQSVLYESRTKNSVA, NASTRES, QQYHRLPLS [GP_HC] the result was 0.15, -0.25, -0.52, -0.33, -0.52, -0.20 (mean -0.28).

The closing 3 entries, repeated:

| CDR-L1 | CDR-L2 | CDR-L3 | group | replicates, log10 nM | mean log10 Kd (nM) |
|---|---|---|---|---|---|
| KSSQSVTQEDRFKNSVA | WASTRES | QQYHRLPLS | Ctrl | ND, ND, ND, ND, ND, ND | ND |
| KLSSSWLYESRNKNSVA | NASQRES | QQYHRLPLS | GP_Gen | 0.23, 0.15, 0.40, -0.24, 0.18, 0.36 | 0.18 |
| YFSQSVLYESRTKNSVA | NASTRES | QQYHRLPLS | GP_HC | 0.15, -0.25, -0.52, -0.33, -0.52, -0.20 | -0.28 |

The measurements come from Li et al. 2023 (doi:10.1038/s41467-023-39022-2) through the FLAb antibody collection.